Target: T1, human BACE1 (sproBACE1) (Homo sapiens, UniProt P56817)
T1 construct: sBACE1, corresponding to amino acids 1-454; made in house; host or cells: Sf9 insect cells (baculovirus), secreted into the medium
Assay: BACE-1 Peptide Hydrolysis Assay (HTRF)
Assay type: biochemical
Conditions: not given
Description: A HindIII/PmeI fragment from pCDNA4-sBACE1myc/His was blunt ended using Klenow and subcloned into the Stu I site of PFASTBACI(A) (Invitrogen). A sBACE1mycHis recombinant bacmid was generated by transposition in DH10Bac cells (GIBCO/BRL). Subsequently, the sBACE1mycHis bacmid construct was transfected into sf9 cells using CellFectin (Invitrogen, San Diego, Calif.) in order to generate recombinant baculovirus. […] Five milliliters of high titer plaque purified sBACEmyc/His virus was used to infect 1 L of logarithmically growing sf9 cells for 72 hours. Intact cells were pelleted by centrifugation at 3000×g for 15 minutes. The supernatant, containing secreted sBACE1, was collected and diluted 50% v/v with 100 mM HEPES, pH 8.0. The diluted medium was loaded onto a Q-sepharose column. The Q-sepharose column was washed with Buffer A (20 mM HEPES, pH 8.0, 50 mM NaCl).
Proteins, were eluted from the Q-sepharose column with Buffer B (20 mM HEPES, pH 8.0, 500 mM NaCl). The protein peaks from the Q-sepharose column were pooled and loaded onto a Ni-NTA agarose column. The Ni-NTA column was then washed with Buffer C (20 mM HEPES, pH 8.0, 500 mM NaCl). Bound proteins were then eluted with Buffer D (Buffer C+250 mM imidazole).
Reactions were initiated by addition of substrate in a 5 μl aliquot resulting in a total volume of 25 μl. After 3 hr at 30° C. reactions were terminated by addition of an equal volume of 2× stop buffer containing 50 mM Tris-HCl pH 8.0, 0.5 M KF, 0.001% Brij-35, 20 μg/ml SA-XL665 (cross-linked allophycocyanin protein coupled to streptavidin; CIS-Bio International, France) (0.5 μg/well). Plates were shaken briefly and spun at 1200×g for 10 seconds to pellet all liquid to the bottom of the plate before the incubation.
Y=Bottom+(Top-Bottom)/(1+10^((LogEC50−X)*Hill Slope)); X is the logarithm of concentration of I, Y is the percent change in ratio and Y starts at bottom and goes to top with a sigmoid shape.

Amino acid sequences for entries named in this document (tags omitted). Residues count along the entry.
UniProt P56817, 22-454: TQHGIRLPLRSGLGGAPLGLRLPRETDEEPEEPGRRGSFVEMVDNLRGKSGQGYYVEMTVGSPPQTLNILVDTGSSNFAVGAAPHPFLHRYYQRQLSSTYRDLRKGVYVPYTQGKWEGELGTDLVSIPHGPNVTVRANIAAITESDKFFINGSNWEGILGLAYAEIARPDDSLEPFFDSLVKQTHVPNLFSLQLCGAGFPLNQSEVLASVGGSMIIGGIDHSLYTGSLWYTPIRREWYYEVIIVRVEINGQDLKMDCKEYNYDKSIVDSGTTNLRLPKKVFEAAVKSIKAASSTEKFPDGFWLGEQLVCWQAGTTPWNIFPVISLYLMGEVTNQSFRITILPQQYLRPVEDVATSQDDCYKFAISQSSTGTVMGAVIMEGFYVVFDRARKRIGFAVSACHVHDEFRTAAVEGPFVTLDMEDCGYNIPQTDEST

Ki, < 5 µM:
CN1C(=N)NC(c2cccc(-c3cccc(Cl)c3)c2)(C2(C)CC2)C1=O (stereo not shown)
CN1C(=N)N[C@@](c2cccc(-c3cncc(Cl)c3)c2)(C2CC2)C1=O
CN1C(=N)NC(c2ccccc2)(c2cccc(-c3ccccn3)c2)C1=O (racemic) [2-IMINO-3-METHYL-5-PHENYL-5-[3-(2-PYRIDINYL)PHENYL]-4-IMIDAZOLIDINONE (RACEMIC)]

Same assay, conditions: read-out: BACE-1 Ki

Ki, < 5 µM:
CN1C(=N)NC(c2cccc(-c3cccc(Cl)c3)c2)(c2nccs2)C1=O (stereo not shown)
CN1C(=N)NC(c2cccc(-c3cccc(Cl)c3)c2)(c2ncccn2)C1=O (stereo not shown)
CN1C(=N)NC(c2cccc(-c3cccc(Cl)c3)c2)(C2CCCCC2)C1=O (stereo not shown)
CN1C(=N)NC(CC2CC2)(c2cccc(-c3cccc(Cl)c3)c2)C1=O (stereo not shown)

— patent US8183252B2, “Heterocyclic aspartyl protease inhibitors” (Schering Corporation, priority 2007, dated 2012)
